{
  "sequences": {"note": "Sequences of proteins named here, by UniProt entry; tags and fusion partners are left off. Residues count along the entry.", "UniProt P23385, 19-1199": "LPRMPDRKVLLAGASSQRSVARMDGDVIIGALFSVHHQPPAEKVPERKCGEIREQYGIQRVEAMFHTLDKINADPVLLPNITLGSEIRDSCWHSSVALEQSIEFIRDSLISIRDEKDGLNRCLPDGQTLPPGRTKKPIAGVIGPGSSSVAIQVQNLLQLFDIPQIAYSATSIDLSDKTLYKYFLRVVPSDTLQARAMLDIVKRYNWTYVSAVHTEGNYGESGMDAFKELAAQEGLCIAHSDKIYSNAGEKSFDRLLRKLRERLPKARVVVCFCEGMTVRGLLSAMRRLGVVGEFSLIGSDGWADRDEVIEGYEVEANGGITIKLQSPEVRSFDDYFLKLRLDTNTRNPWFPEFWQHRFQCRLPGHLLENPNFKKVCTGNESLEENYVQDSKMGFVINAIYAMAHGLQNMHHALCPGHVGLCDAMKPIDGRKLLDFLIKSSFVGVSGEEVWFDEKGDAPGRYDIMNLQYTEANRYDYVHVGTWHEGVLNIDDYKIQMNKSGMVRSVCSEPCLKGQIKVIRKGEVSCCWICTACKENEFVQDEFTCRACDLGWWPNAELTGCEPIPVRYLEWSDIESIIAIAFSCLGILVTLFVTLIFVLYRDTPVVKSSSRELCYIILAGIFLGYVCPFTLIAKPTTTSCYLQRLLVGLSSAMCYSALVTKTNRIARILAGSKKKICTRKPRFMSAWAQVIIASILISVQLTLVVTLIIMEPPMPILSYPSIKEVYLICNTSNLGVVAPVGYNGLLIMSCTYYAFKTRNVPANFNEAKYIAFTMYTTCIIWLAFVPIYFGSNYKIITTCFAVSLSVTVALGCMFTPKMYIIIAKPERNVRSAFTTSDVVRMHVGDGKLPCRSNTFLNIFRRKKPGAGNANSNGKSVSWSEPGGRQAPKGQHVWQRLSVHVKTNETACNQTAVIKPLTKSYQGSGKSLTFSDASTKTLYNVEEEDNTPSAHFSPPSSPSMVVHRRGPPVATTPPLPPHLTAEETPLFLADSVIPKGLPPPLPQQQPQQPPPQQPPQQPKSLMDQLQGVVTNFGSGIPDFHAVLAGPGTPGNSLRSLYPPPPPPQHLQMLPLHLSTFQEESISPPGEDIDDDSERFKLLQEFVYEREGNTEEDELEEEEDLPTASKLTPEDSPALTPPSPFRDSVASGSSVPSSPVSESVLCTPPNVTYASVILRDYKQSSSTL", "UniProt P23385, 19-1199 D322I": "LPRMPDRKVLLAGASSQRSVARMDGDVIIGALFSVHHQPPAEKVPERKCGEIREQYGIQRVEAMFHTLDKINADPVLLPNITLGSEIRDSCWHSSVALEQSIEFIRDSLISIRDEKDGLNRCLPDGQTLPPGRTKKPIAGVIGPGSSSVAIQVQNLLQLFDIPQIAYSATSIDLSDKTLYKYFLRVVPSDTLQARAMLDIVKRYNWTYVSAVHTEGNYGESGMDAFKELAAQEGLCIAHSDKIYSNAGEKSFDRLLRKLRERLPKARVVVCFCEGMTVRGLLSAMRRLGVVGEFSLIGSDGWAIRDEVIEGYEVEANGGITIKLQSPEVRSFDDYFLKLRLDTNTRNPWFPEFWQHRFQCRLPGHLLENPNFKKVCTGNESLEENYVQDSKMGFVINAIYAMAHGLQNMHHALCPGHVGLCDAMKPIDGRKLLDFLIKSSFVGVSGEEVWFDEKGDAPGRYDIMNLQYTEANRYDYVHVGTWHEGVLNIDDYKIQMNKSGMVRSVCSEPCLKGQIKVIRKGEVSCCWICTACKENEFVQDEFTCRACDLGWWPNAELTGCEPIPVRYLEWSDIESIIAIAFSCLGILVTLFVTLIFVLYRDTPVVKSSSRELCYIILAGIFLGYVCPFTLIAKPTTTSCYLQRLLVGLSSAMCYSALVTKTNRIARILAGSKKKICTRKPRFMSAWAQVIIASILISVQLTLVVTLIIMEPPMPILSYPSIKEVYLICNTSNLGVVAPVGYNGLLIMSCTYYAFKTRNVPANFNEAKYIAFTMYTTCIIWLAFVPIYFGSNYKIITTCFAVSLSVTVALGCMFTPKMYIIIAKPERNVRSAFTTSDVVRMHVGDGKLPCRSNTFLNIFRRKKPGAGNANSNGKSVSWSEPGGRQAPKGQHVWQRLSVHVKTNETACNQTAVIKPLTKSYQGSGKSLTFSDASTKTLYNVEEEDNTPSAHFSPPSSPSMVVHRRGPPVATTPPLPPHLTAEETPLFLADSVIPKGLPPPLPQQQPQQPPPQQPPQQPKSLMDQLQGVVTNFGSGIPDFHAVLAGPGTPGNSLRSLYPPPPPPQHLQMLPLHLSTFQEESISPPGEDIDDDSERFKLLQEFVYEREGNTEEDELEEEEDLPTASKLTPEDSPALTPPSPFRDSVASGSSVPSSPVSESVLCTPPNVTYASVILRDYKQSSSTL", "UniProt P23385, 19-1199 E325I": "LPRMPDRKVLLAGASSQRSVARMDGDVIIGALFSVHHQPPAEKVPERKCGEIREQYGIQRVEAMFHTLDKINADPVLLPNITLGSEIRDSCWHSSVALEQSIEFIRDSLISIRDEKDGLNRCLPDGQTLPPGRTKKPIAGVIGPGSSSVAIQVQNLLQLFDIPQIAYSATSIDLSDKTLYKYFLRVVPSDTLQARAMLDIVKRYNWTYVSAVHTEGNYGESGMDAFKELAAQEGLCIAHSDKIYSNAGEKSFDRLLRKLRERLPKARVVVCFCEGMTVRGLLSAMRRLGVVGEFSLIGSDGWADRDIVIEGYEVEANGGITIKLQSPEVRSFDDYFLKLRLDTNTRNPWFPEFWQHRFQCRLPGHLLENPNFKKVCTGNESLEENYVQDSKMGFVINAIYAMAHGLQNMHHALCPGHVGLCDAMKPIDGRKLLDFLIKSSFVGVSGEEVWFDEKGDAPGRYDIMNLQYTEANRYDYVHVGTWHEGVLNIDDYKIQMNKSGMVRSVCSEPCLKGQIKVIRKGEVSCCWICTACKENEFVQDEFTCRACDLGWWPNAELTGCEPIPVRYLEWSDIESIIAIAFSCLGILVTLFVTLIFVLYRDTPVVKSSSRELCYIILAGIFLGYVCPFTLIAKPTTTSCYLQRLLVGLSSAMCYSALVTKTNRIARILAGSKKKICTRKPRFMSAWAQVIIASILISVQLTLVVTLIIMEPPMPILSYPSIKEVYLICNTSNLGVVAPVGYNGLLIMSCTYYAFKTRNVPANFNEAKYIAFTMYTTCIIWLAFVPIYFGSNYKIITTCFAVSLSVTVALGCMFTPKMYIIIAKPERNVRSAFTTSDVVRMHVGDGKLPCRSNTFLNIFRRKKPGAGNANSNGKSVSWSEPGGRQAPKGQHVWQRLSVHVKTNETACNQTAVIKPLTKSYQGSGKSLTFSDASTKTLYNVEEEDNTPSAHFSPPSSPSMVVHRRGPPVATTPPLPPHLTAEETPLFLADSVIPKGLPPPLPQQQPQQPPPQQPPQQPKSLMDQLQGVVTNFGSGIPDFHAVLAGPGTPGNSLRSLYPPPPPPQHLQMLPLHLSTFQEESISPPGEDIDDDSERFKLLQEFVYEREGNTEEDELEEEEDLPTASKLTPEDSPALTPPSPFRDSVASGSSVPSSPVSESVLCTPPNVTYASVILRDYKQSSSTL"},
  "source": "patent US10449216B2",
  "about": "“Modulating drug effects against metabotropic glutamate receptor with extracellular calcium” (GEORGIA STATE UNIVERSITY RESEARCH FOUNDATION, INC., priority 2013, dated 2019)",
  "key": {"WT mGluR1α [1]": {"molecular_target": "T1, WT mGluR1α (Rattus norvegicus, UniProt P23385)", "T1 construct": "expressed in transfected cells; host or cells: HEK293", "assay": "Single cell Fura-2 [Ca^2+]i response in HEK293 cells transiently transfected with WT mGluR1α", "type": "cell-based", "settings": "EC50 of L-Quis"}, "WT mGluR1α [2]": {"molecular_target": "T1, WT mGluR1α", "assay": "[^3H]-L-Quis binding to membranes of HEK293 cells expressing WT mGluR1α"}, "mGluR1": {"molecular_target": "mGluR1 (Rattus norvegicus, UniProt P23385)", "settings": "mGluR1, Sp. Rn; cited from earlier work"}, "mGluR1α D322I": {"molecular_target": "mGluR1α D322I (Rattus norvegicus, UniProt P23385, D322I)", "assay": "cell-based", "settings": "EC50 of L-Quis, [Ca^2+]i response"}, "mGluR1α E325I": {"molecular_target": "mGluR1α E325I (Rattus norvegicus, UniProt P23385, E325I)", "assay": "cell-based", "settings": "EC50 of L-Quis, [Ca^2+]i response"}},
  "note": "“And” between values parts separate entries of the source, which are not always exact repeats. Equal entries are not always repeated.",
  "data": [
    {"compound": "N[C@@H](Cn1oc(=O)[nH]c1=O)C(=O)O", "note": "[L-Quis, L-Quisqualate]", "values": [
      {"measurement": "EC50", "setting": "WT mGluR1α [1]; [Ca^2+]o 0 mM", "value": "12.8 nM and 12.6 nM"},
      {"measurement": "EC50", "setting": "WT mGluR1α [1]; [Ca^2+]o 1.8 mM", "value": 2.8, "unit": "nM"},
      {"measurement": "Kd", "setting": "WT mGluR1α [2]", "value": "~30", "unit": "nM"},
      {"measurement": "Affinity (pKi)", "setting": "mGluR1", "value": "7.5-8.0 pKi"},
      {"measurement": "EC50", "setting": "mGluR1α D322I; [Ca^2+]o 0 mM", "value": 12.4, "unit": "nM"},
      {"measurement": "EC50", "setting": "mGluR1α D322I; [Ca^2+]o 1.8 mM", "value": 3.2, "unit": "nM"},
      {"measurement": "EC50", "setting": "mGluR1α E325I; [Ca^2+]o 0 mM", "value": "20 nM and 20.6 nM"},
      {"measurement": "EC50", "setting": "mGluR1α E325I; [Ca^2+]o 1.8 mM", "value": 7.6, "unit": "nM"}
    ]}
  ]
}
